Earlier results as cited in patent US20250195486A1 (Closed Loop Medicine Ltd., priority 2023, published 2025).

CN1CCc2nc(C(=O)N[C@@H]3C[C@@H](C(=O)N(C)C)CC[C@@H]3NC(=O)C(=O)Nc3ccc(Cl)cn3)sc2C1 [edoxaban]
effect of P-gp inhibitors (phase II studies): 120% | effect of P-gp inhibitors (phase III studies): 16%

Where two headings read alike, the source gives them in different places.
